Tested on: mouse
Assay: Mouse tail-flick test (TF), tail-dip into hot water
Conditions: from TF-ED50 and WT-ED50, i.v.; high value signals low brain penetration

SMILES: CN(C(=O)Cc1cccc2occc12)[C@H]1CC[C@@]2(CCCO2)C[C@@H]1N1CCCC1
- BPI (Brain Penetration Index): lower than 5
